In one experiment the target is Human A2AAR (Homo sapiens, UniProt P29274). As to the kind of experiment: A2AAR competition binding ([3H]-ZM241385 displacement). The note with it: read-out: A2AAR binding affinity Ki; radioligand displacement, mean±SEM of three experiments in duplicate; tested form: TFA. A general note: In a radioligand displacement assay an active substance lowers the binding of a labelled ligand.

Protein sequences, listed by entry. Tags and fused reporters are not part of them. Lines headed by an entry give the natural chain unless they say otherwise; changes in a name come on top.
UniProt P14416, whole entry: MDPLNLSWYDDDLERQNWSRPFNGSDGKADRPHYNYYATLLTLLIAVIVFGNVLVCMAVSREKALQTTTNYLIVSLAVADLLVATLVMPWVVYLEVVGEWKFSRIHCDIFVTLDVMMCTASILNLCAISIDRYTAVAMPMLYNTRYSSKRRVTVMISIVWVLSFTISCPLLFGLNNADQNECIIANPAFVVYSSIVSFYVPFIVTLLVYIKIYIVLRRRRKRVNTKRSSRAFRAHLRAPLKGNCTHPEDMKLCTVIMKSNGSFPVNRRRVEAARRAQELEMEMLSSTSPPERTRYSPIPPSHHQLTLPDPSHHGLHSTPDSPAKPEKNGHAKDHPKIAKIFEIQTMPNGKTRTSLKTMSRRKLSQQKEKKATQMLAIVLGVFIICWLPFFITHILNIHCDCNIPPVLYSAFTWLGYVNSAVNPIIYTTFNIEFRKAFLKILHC

The next experiment concerns the target Human D2R (Homo sapiens, UniProt P14416). As to the kind of experiment: D2R competition binding ([3H]-spiperone displacement). The note with it: read-out: D2R binding affinity Ki; radioligand displacement, mean±SEM of three experiments in duplicate; tested form: TFA.

In general, Ki refers to the dissociation constant of the complex between target and ligand, obtained from inhibition or displacement. As for `COc1ccc(Cl)c2sc(NC(=O)CCN(C)C3Cc4ccccc4C3)nc12`, the Ki on Human A2AAR amounted to 770 nM; at Human D2R, 2700 nM.

For `COc1ccc(C)c2sc(NC(=O)CCN(C)C3Cc4ccccc4C3)nc12`, the Ki was 840 nM on Human A2AAR and 1900 nM at Human D2R.
